Test results reported in ChEMBL document CHEMBL4616677, “Preclinical Lead Optimization of a 1,2,4-Triazole Based Tankyrase Inhibitor” (J Med Chem, 2020).

Chains of the proteins cited; added tags and fusions are not shown. Lines headed by an entry give the natural chain unless they say otherwise; changes in a name come on top.
UniProt P09874, whole entry: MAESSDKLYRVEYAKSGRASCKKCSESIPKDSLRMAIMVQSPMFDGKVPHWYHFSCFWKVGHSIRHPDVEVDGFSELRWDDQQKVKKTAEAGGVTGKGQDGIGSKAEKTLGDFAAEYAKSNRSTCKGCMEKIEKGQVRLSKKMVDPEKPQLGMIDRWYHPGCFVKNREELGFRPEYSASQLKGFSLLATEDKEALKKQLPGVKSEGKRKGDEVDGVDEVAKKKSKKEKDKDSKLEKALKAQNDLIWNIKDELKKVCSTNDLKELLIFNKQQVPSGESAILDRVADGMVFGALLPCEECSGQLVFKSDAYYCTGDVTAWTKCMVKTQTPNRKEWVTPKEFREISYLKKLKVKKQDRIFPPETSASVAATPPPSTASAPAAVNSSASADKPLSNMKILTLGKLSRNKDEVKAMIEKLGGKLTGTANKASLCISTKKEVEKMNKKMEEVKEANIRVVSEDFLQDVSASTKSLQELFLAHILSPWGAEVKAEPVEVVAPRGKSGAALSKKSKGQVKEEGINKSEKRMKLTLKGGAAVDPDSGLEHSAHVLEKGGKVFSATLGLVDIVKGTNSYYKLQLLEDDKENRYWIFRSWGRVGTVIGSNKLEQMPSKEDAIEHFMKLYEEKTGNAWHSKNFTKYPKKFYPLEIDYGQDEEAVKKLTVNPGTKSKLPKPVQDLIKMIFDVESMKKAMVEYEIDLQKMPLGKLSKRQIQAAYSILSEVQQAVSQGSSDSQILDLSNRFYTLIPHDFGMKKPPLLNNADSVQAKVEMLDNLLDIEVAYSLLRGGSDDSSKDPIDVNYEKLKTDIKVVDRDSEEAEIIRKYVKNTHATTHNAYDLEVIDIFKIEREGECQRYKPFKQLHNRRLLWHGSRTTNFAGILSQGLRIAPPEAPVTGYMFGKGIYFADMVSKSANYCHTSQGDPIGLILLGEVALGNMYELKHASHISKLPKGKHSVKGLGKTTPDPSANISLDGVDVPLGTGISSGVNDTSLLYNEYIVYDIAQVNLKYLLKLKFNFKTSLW
UniProt Q9UGN5: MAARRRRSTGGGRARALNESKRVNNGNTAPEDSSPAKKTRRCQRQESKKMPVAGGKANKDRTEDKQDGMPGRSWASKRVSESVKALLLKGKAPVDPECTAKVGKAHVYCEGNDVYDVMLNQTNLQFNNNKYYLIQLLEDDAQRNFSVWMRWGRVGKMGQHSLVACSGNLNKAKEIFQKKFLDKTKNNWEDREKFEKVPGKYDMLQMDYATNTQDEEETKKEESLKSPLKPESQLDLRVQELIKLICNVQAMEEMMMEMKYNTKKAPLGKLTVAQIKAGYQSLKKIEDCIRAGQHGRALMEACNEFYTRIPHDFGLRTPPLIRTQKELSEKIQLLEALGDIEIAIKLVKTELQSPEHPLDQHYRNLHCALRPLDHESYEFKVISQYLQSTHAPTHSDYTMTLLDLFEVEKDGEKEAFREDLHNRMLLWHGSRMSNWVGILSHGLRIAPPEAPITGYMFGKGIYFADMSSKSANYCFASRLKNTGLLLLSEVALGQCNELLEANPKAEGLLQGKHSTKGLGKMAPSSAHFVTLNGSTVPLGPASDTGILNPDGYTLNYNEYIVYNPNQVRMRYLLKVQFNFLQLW
UniProt Q9UKK3: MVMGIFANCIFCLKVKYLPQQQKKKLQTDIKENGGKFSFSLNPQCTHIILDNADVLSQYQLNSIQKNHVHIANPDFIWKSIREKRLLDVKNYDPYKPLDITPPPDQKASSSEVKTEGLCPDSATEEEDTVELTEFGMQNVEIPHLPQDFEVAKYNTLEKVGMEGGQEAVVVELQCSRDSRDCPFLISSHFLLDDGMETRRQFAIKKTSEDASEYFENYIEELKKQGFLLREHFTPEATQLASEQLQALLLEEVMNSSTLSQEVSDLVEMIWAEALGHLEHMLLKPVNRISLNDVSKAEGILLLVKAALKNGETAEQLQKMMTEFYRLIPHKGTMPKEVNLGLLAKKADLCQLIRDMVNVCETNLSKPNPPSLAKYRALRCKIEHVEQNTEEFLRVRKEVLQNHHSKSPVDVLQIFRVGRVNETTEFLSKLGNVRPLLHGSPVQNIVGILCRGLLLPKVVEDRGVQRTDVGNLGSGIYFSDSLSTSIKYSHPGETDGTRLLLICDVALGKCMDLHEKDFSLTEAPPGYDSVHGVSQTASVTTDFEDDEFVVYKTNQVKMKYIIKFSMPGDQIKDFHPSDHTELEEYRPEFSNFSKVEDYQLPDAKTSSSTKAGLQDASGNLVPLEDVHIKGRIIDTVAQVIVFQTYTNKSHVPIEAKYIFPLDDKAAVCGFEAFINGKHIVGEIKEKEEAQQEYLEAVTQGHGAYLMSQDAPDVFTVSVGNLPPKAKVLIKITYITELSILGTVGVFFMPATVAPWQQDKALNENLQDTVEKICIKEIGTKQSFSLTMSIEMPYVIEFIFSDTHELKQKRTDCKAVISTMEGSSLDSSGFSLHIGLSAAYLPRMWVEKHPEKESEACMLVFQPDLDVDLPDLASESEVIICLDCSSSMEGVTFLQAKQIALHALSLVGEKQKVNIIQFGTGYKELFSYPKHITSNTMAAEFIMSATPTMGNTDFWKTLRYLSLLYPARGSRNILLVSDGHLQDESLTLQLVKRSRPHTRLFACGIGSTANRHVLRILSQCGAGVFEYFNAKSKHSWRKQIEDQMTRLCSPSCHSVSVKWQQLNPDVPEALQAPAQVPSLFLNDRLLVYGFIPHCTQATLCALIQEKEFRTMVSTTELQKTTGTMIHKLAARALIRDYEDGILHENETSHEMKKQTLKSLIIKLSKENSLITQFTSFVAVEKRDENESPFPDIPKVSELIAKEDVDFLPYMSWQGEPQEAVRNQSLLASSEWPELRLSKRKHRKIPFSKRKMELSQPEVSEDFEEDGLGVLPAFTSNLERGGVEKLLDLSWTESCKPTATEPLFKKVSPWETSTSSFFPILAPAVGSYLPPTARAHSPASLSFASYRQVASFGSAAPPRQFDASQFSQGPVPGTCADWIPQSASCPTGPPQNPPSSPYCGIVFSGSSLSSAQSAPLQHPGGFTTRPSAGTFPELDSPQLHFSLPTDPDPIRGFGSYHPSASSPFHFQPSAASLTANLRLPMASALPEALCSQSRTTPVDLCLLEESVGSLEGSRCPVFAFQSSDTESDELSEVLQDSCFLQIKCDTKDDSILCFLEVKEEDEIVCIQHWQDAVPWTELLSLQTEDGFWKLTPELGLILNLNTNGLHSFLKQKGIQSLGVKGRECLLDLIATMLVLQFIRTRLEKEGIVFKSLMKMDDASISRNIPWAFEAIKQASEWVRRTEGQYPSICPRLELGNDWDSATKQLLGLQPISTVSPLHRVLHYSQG
UniProt Q460N5, whole entry: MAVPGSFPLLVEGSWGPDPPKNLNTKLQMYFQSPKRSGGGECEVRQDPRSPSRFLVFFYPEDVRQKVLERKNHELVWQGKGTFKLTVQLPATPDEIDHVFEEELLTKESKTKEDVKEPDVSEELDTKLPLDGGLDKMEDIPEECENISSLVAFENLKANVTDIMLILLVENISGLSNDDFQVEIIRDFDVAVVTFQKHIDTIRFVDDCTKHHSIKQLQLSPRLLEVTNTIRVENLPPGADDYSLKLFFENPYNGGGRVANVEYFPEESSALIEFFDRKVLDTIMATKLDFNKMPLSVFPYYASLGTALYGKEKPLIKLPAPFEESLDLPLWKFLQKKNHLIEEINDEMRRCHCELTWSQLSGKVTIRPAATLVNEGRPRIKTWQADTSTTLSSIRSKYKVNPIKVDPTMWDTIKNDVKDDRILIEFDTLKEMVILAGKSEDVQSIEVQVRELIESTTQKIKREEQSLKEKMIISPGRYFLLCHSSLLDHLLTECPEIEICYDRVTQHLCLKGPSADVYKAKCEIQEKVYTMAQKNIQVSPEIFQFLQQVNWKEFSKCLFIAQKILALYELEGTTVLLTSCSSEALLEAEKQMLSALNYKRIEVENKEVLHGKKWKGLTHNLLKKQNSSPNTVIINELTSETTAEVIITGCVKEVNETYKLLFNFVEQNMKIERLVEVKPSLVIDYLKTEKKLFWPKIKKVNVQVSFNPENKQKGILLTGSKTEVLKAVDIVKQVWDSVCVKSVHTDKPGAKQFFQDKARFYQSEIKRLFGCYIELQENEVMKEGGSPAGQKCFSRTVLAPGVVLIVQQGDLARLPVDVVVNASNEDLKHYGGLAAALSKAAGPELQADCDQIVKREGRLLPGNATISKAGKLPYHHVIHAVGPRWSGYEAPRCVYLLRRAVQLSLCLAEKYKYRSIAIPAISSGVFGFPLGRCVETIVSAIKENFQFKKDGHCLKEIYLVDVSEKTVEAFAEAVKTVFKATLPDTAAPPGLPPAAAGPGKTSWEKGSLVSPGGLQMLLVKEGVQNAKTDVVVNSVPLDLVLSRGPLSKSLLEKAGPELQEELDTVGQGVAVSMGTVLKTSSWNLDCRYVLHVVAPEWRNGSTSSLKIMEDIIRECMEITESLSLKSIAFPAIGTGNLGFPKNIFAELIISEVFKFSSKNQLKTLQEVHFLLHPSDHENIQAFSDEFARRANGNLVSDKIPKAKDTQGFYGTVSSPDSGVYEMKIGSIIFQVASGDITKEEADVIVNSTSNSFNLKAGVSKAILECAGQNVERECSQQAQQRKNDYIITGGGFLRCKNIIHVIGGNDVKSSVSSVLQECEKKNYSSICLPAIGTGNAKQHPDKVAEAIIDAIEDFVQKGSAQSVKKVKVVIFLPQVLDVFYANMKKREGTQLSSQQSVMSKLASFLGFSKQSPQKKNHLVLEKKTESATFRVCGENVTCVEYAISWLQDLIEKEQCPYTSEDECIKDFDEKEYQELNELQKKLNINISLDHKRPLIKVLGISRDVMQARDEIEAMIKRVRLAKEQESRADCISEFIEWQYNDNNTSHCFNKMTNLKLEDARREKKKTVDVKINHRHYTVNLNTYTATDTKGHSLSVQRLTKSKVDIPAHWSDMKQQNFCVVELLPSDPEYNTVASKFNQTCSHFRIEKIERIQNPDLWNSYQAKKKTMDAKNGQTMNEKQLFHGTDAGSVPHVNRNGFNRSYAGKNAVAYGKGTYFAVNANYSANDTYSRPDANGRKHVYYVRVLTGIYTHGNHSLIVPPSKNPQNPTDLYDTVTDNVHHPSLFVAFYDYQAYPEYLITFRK
UniProt P08684, whole entry: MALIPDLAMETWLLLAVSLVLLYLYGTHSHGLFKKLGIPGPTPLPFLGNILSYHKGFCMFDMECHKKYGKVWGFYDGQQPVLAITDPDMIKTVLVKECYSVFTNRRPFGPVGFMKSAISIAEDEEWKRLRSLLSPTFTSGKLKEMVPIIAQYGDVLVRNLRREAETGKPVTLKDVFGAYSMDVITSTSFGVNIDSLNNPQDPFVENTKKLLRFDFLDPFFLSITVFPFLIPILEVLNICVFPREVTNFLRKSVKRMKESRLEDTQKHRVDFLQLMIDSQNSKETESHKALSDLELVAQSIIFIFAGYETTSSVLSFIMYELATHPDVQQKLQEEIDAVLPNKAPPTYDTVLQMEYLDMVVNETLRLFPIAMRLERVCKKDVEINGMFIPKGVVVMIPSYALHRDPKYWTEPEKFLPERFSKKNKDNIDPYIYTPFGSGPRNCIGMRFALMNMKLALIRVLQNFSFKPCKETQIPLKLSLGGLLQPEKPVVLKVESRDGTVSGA

How the values were obtained:
[1] = Half life in ICR mouse at 5 mg/kg, po by LC-MS/MS analysis; assay type: ADME, organism-based; details: in vivo
[2] = molecular target: Poly [ADP-ribose] polymerase 1 (Homo sapiens, UniProt P09874); assay: Inhibition of ARTD1 (unknown origin) measured after 30 mins in presence of NAD+ by fluorescence assay
[3] = molecular target: Poly [ADP-ribose] polymerase 2 (Homo sapiens, UniProt Q9UGN5); assay: Inhibition of ARTD2 (unknown origin) measured after 30 mins in presence of NAD+ by fluorescence assay
[4] = molecular target: Protein mono-ADP-ribosyltransferase PARP4 (Homo sapiens, UniProt Q9UKK3)
[5] = molecular target: T1, Protein mono-ADP-ribosyltransferase PARP15 (Homo sapiens, UniProt Q460N3)
T1 sequence (Q460N3 whole entry): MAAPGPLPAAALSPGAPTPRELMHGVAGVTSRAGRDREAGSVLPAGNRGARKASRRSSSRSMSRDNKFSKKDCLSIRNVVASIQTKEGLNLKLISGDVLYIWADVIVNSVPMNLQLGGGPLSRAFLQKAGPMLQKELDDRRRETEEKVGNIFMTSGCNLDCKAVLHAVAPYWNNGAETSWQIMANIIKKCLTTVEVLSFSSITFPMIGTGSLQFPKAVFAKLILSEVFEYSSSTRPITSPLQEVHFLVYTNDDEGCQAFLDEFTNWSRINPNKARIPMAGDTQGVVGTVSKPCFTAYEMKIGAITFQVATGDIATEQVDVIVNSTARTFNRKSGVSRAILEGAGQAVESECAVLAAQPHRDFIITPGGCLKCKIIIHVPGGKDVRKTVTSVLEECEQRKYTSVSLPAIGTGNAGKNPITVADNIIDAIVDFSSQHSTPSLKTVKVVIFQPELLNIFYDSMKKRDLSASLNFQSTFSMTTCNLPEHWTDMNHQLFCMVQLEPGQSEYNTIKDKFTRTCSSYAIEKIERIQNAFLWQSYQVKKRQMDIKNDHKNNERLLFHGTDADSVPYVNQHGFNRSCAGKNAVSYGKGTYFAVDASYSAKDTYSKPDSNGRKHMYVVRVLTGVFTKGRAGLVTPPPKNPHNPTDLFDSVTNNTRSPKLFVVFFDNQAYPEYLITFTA

[6] = molecular target: Protein mono-ADP-ribosyltransferase PARP14 (Homo sapiens, UniProt Q460N5)
[7] = molecular target: T2, Protein mono-ADP-ribosyltransferase PARP10 (Homo sapiens, UniProt Q53GL7)
T2 sequence (Q53GL7 whole entry): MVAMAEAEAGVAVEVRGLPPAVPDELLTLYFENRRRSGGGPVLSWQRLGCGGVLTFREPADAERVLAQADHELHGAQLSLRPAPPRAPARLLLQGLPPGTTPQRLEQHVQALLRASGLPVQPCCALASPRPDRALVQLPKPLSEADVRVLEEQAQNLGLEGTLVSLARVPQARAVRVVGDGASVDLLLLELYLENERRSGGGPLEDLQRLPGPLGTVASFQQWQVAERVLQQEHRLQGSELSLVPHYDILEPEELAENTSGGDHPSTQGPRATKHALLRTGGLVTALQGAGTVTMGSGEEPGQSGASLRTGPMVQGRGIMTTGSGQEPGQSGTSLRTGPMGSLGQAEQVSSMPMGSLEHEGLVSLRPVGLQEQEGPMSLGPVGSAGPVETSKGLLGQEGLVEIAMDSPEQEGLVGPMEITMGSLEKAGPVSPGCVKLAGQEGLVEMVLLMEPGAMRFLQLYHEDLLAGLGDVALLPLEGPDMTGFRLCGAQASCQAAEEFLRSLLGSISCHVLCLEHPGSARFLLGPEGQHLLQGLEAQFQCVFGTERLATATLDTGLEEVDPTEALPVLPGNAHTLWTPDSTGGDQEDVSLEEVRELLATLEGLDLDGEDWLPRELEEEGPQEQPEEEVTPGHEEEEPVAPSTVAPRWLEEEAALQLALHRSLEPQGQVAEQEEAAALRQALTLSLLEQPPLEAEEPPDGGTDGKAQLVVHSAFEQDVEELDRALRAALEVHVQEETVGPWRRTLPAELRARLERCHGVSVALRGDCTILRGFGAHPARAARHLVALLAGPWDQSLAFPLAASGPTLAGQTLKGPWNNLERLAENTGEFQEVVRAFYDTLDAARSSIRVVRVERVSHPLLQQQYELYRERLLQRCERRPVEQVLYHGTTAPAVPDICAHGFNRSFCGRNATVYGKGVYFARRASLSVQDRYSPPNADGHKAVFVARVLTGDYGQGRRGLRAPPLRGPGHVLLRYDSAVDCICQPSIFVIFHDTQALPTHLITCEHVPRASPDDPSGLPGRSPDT

[8] = molecular target: T3, Protein mono-ADP-ribosyltransferase PARP12 (Homo sapiens, UniProt Q9H0J9)
T3 sequence (Q9H0J9 whole entry): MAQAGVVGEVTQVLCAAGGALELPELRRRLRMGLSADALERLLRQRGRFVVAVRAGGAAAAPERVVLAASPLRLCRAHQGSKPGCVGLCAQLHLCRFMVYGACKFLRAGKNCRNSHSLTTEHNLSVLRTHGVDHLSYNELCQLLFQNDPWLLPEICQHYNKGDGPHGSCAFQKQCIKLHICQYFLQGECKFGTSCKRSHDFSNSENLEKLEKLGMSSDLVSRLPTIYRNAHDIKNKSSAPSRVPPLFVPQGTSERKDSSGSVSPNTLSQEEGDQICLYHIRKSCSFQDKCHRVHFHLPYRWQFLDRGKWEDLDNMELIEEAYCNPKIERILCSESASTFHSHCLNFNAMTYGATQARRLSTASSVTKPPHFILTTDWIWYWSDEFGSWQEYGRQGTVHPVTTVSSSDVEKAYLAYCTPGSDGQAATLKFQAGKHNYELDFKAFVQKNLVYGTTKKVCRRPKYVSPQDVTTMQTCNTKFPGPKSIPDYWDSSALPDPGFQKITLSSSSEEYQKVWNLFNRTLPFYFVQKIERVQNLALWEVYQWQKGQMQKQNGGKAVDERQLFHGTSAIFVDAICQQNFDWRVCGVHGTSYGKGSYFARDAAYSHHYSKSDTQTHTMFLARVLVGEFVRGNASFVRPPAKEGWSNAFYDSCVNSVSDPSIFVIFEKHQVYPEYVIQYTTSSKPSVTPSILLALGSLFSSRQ

Cytochrome P450 3A4 = Cytochrome P450 3A4 (Homo sapiens, UniProt P08684)

CCOc1ccc(-c2nnc([C@H]3C[C@H](NC(=O)c4ccccn4)C3)n2-c2ccccc2F)nc1
t1/2 [1]: 40.2 min | IC50 [2]: > 10 µM | IC50 [3]: > 10 µM | IC50 [4]: > 10 µM | IC50 [5]: > 10 µM | IC50 [6]: > 10 µM | IC50 [7]: > 10 µM | IC50 [8]: > 10 µM | IC50 (Cytochrome P450 3A4): > 25 µM
